{"source": "paper PMC5509375", "about": "“Oxidative stress induced in E. coli by the human antimicrobial peptide LL-37” (PLoS Pathogens, 2017)", "key": {"E. coli MG1655 [1]": {"test_system": "E. coli MG1655", "assay": "MIC assay, broth microdilution, aerobic growth", "type": "cell-based", "settings": "E. coli MG1655, EZRDM, 30°C, 6 hr, two-fold serial dilutions, reproducible to the same factor of two", "protocol": "(§1) We have measured MICs in aerobic and anaerobic fermentation conditions using a series of two-fold dilutions for the four natural AMPs in the same rich, chemically defined EZRDM medium at 30°C (Table 1). The MIC in anaerobic fermentation conditions is 4-fold higher for LL-37 and 8-fold higher for melittin. […] For cecropin A and for indolicidin, the MIC is the same in aerobic and fermentation conditions. Evidently the activity against E. coli of some, but not all, natural AMPs is enhanced by the presence of oxygen. For LL-37, the primary focus of this study, we also measured the MIC in conditions enabling anaerobic respiration (no oxygen, but supplemented with 10 mM KNO3; Table 2).\nThe aerobic MIC values for the various AMPs (Table 1) were determined using the broth microdilution method as previously described. Two-fold serial dilutions of LL-37 in 1× EZRDM were performed in separate rows of a polystyrene 96-well plate, with each plate containing an inoculum of E. coli MG1655. The inoculum was a 1:20 dilution from a bulk culture at midlog phase (OD600 = 0.5) grown at 30°C. The plate was incubated at 30°C and shaken at 200 rpm in a Lab-Line Orbital Environ Shaker (model 3527) for 6 hr. The MIC value was taken as the lowest concentration for which no growth was discernible (<0.05 OD) after 6 hr."}, "E. coli MG1655 [2]": {"test_system": "E. coli MG1655", "assay": "MIC assay, anaerobic fermentation (oxygen scavenged with PCA/PCD)", "type": "cell-based", "settings": "E. coli MG1655, EZRDM, 30°C, 6 hr, PCA 10 mM / PCD 100 nM", "protocol": "as §1\nAnaerobic MIC values (Table 1) were measured on a 96-well plate that was sealed with plastic wrap. Cells were incubated in EZRDM containing protocatechuic acid (PCA) at 10 mM and protocatechuate 3,4-dioxygenase (PCD) at 100 nM to scavenge oxygen. The plate was incubated at 30°C for 6 hr, followed by OD measurements."}}, "data": [{"compound": "CC[C@H](C)[C@H](NC(=O)CN)C(=O)NCC(=O)N[C@@H](C)C(=O)N[C@H](C(=O)N[C@@H](CC(C)C)C(=O)N[C@@H](CCCCN)C(=O)N[C@H](C(=O)N[C@@H](CC(C)C)C(=O)N[C@H](C(=O)N[C@H](C(=O)NCC(=O)N[C@@H](CC(C)C)C(=O)N1CCC[C@H]1C(=O)N[C@@H](C)C(=O)N[C@@H](CC(C)C)C(=O)N[C@H](C(=O)N[C@@H](CO)C(=O)N[C@@H](Cc1c[nH]c2ccccc12)C(=O)N[C@H](C(=O)N[C@@H](CCCCN)C(=O)N[C@@H](CCCNC(=N)N)C(=O)N[C@@H](CCCCN)C(=O)N[C@@H](CCCNC(=N)N)C(=O)N[C@@H](CCC(N)=O)C(=O)N[C@@H](CCC(N)=O)C(N)=O)[C@@H](C)CC)[C@@H](C)CC)[C@@H](C)O)[C@@H](C)O)C(C)C)C(C)C", "note": "[Melittin]", "values": [{"measurement": "MIC (μM) Aerobic", "setting": "E. coli MG1655 [1]", "value": 5, "unit": "µM"}, {"measurement": "MIC (μM) Fermentation", "setting": "E. coli MG1655 [2]", "value": 40, "unit": "µM"}]}]}
